# Values of other authors as cited in paper PMC8929351 (Pharmacology Research & Perspectives, 2022).
# System: rat µ receptor
# Conditions: cited from earlier work
compound,measurement,value
CN1CC[C@]23c4c5ccc(O)c4O[C@H]2[C@@H](O)C=C[C@H]3[C@H]1C5 [Morphine],Operational tau,5.2 ± 0.2
